Experimental data published in publication doi:10.1101/2025.05.28.656709.

Amino acid sequences for entries named in this document (tags omitted). A change or cut given only in a name is not applied to a line headed by its entry. Residues count along the entry.
UniProt P25106: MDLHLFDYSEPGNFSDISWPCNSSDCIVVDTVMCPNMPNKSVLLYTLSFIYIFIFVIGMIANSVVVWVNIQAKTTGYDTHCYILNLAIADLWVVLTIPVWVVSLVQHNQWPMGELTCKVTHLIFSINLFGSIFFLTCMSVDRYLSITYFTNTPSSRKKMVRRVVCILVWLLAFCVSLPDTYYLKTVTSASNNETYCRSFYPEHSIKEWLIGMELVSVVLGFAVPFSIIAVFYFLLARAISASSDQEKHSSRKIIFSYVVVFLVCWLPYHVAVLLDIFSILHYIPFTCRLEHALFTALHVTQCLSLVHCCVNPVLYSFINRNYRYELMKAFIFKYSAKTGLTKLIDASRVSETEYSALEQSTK
UniProt P48061, 22-89: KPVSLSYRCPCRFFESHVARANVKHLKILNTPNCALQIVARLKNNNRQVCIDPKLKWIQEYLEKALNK

Molecular target: CXCR7 (UniProt P25106)

“SDF1α (from UniProt P48061-2 22-89) (ligand)” was tested, and the β-arrestin signaling (agonism EC50), PathHunter CHO-K1 CXCR7 β-arrestin cells was 22.5 nM.
